The Human Domainome abundance scans (Beltran et al. 2025)

B1: X-ray repair cross-complementing protein 6, residues 558 to 609; numbered along this chain, P12956 (parent)
chain: EYSEEELKTHISKGTLGKFTVPMLKEACRAYGLKSGLKKQELLEALTKHFQD

Variants of: B1
Experiment: abundance fitness (aPCA) (normalised: wild type 0, dead -1); higher = more abundant; growth selection in yeast, the domain comes from the species named
Details: Homo sapiens

Abundance fitness of substitutions, site by site:
E6: S 0.025, V 0.051, W -0.081
L7: A -0.253, C -1.08, G -0.956, H -0.665, M -0.182, P -0.729, S -0.677, T -0.192, V -0.533
K8: A -0.151, C -0.057, D -0.539, E -0.199, F -0.172, G -0.326, H -0.386, I -0.055, L 0.002, M -0.046, N -0.398, P -0.802, Q -0.048, R -0.016, S -0.188, T -0.191, V -0.072
T9: A -0.074, C -0.091, D -0.01, F 0.029, G -0.049, H -0.106, I -0.033, K -0.044, L -0.08, M -0.065, P -0.746, Q -0.062, R -0.042, S -0.03, W -0.159
H10: A -0.142, D -0.628, E -0.397, F -0.12, G -0.529, I -0.246, K -0.719, L -0.557, M -0.076, N -0.418, P -0.783, R -0.216, S -0.211, V -0.247, W -0.4, Y -0.155
I11: A -0.311, C -0.267, D -1.03, E -0.995, H -0.663, K -0.764, L -0.135, M -0.289, N -0.377, P -1.16, Q -0.901, R -0.751, S -0.694, T -0.478, V -0.143, W -0.198, Y 0.017
S12: A 0.023, C -0.113, D -0.029, E 0.085, F -0.09, G -0.112, H -0.028, I -0.275, K 0.051, L -0.057, P -0.674, R -0.036, T -0.04, V -0.045, Y -0.115
K13: C -0.026, D -0.36, E 0.031, F -0.293, G -0.251, H -0.053, I -0.284, L -0.17, M -0.118, N 0.205, P -0.519, Q 0.009, R -0.065, S -0.243, T -0.275, W -0.987, Y -0.401
G14: A -0.469, C -0.633, D -0.309, E -0.395, F -0.933, H -0.788, I -0.998, K -0.09, L -0.442, M -1.02, N -0.128, P -0.617, Q -0.197, R -0.34, S -0.326, T -1, V -0.96, W -0.666
T15: A -0.536, C -0.648, D -0.365, E -0.358, F -0.934, G -0.515, H -0.7, I -0.504, L -0.396, M -0.516, P -0.449, Q -0.216, R -0.457, S -0.367, V -0.669, W -0.539, Y -0.629
L16: A -0.383, C -0.914, D -0.735, E -0.292, G -0.503, H -0.57, M -0.317, N -0.702, P -0.97, Q -0.669, R -0.743, S -0.652, T -0.353, V -0.331, W -0.878, Y -0.827
G17: A -0.046, C 0, D 0.052, E 0.052, F -0.285, H -0.239, I -0.232, K -0.253, L -0.183, M -0.12, N 0.045, Q 0.006, R -0.105, S 0.002, T -0.112, V 0.02, W 0.036, Y -0.09
K18: C -0.016, D -0.009, E 0.113, F 0.021, H -0.105, I -0.297, M -0.005, N 0.166, Q -0.052, R -0.079, S 0.078, T 0.187, V -0.327, W -0.225, Y -0.445
F19: C 0.03, D -0.635, E -0.345, G -0.611, H -0.485, I -0.494, K -0.667, L -0.004, P -0.157, Q -0.689, R -0.778, S -0.858, V -0.283, W -0.025, Y 0.068
T20: A -0.441, C -0.494, D -0.078, E -0.12, F -1.04, G -0.173, H -0.837, I -0.961, K -0.544, L -1.13, M -1.11, N -0.253, P -0.115, Q -0.388, R -0.512, S -0.107, V -1.22, W -1.1, Y -0.93
V21: A -0.365, C -0.38, D -0.744, E -0.111, F -0.315, G -0.36, H -0.864, I -0.204, K -0.457, L -0.119, M -0.2, N -0.541, P -0.675, Q -0.035, R -0.262, S -0.597, Y 0.069
P22: A 0.016, C -0.57, D 0.14, E 0.141, G -0.12, H 0.006, I -0.161, K 0.067, L -0.357, M -0.369, N 0.003, Q 0.129, R -0.053, S -0.122, T -0.101, V -0.418, W -0.37, Y -0.245
M23: A -0.08, D -0.277, F -0.36, G -0.413, H -0.582, I -0.488, K -0.048, L -0.373, N -0.781, P -0.643, Q -0.082, R -0.182, S -0.22, W -0.124, Y -0.18
L24: A -0.784, C -0.928, D -0.676, E -0.858, F -0.884, G -1.07, K -1, M -0.545, N -0.848, Q -0.786, R -0.892, S -0.907, T -1.15, V -0.95, W -1.02
K25: A -0.102, C -0.009, D -0.029, E -0.035, F -0.266, G -0.339, H -0.249, I 0.155, L -0.239, M -0.195, N 0.212, P -1.11, Q 0.011, R -0.034, S -0.121, T -0.02, W -0.231, Y -0.544
E26: A -0.075, C -0.266, D -0.334, F -0.438, G -0.166, H -0.02, I -0.103, K -0.218, L -0.177, M -0.29, N -0.474, P -1.01, Q 0.114, R 0.002, S -0.082, T -0.576, V -0.21, Y -0.412
A27: C -0.621, G -0.937, I 0.072, K -0.37, L 0.021, M 0.006
